System: Influenza A(H1N1)pdm09 (California/07/09)
Conditions: Table 58B, 70%, 2 min, 37 ± 2° C.; VC titer 5.7

CCO [Ethanol]
LRV: >5.0

Source: patent publication US20240065998A1, “MONOACYLGLYCEROL AND FREE FATTY ACID-BASED COMPOSITIONS, METHODS OF MANUFACTURING AND USE OF THE SAME” (priority 2021, published 2024)
